## Ab-14 light chain CDR variants: yeast mating affinities

All variants were tested on one target, the spike HR2 peptide PDVDLGDISGINAS (SARS-CoV-2).

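Designed CDR sequences, proposed from the first random library and measured here. Several design methods are mixed in this list. In AlphaSeq, yeast of one mating type display the scFv and yeast of the other type display the target. Pairs that bind mate more often; barcode pairs of the diploids are counted by sequencing. Read counts were normalised to the haploid input and turned into Kd by a linear fit to BCL2-family pairs of known affinity, for each replicate. The assay was run in six technical replicates.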

Parent: Ab-14, a human scFv built as VH, a 15-residue (Gly4Ser)3 linker, VL. Only the CDRs of the light chain vary.
VH: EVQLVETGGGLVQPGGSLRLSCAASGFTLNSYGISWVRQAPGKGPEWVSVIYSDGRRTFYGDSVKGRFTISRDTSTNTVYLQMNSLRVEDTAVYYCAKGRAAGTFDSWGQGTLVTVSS
VL: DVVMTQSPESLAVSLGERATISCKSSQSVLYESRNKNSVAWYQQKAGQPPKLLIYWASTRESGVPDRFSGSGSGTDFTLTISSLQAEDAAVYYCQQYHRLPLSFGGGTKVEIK

Each variant is given by its three light chain CDRs, as the data file delimits them; those of the parent are KSSQSVLYESRNKNSVA, WASTRES, QQYHRLPLS. Scale: log10 of Kd in nM, estimated from mating counts; low values are strong binders. Averages over replicates are reported, and they cover detected replicates only. A pair that was not seen in any replicate is written "nd"; this usually means weak binding, but a binder can also be missed. The parent sequence was in this pool as ten entries: three were never detected, three once, and four in most replicates, with averages from 0.34 to 2.37. Values of this round are not directly comparable with the first-round values of the same sequences. The authors averaged sequences with at least three values out of six and counted those with two or fewer as poor binders. Nonspecific signal, from three strains lacking the peptide, appeared in 4% of pairings of all light chain designs, centred on 2.64 (5% of these signals below 1.59); values are not corrected for it.

CDR-L1	CDR-L2	CDR-L3	log10 Kd (nM), mean	replicates with signal
KVDQSVLYKSRNKNAVA	QASTRES	QDYHRLPLS	0.30	6/6
KHSQSVLNESRNKNSVA	DASTRES	QQYHRLPLS	-0.01	6/6
MVNGIMDHLSKQTNNVA	EMTTRED	QQYDRLPLS	1.51	5/6
MFSQLMEYGSRYKNSVA	QASTREN	QQYHWLPLS	0.57	6/6
KSSGSVLYESMNKNSVA	DATTRES	QQYMRLPLS	-0.17	6/6
KVSQSVLYESRNKNAVA	AASTRES	QQYHRLPLS	-0.77	4/6
KSSNSVLYNSREKNSVA	GASTRES	QQYHRLPLS	0.12	6/6
HMQNESQGDSRQWNNVA	ETTVVET	QQYATLPLT	1.68	6/6
KLVQSELYESRQSNSVA	NASYRES	QQYHRLPLS	0.30	6/6
KLTMITGLEKVSKNNVA	EMETRER	QQYARLPLA	0.39	6/6
MVYESMDQALRTHNSIA	DNQTRES	QQYDRLPLS	1.70	6/6
HVSLQLRPGREIQNPIA	EGSHRAA	QQYDRLPLG	0.53	6/6
HLSDVNLYESRNKNSVA	NASTRES	QQYHRLPLS	-0.17	6/6
KSSQSYLYESGNKNSVA	DASTRES	QQYHRLPLS	-0.05	6/6
KSKQSVLYESTNKNSVA	YASTRES	QQYHRLPLS	1.95	6/6
KSSQSVPYESRNFNSVA	WASTRET	YVYHRLPLS	nd	0/6
KLSQSVLYESRNKNSVA	WASTRFS	QQYHRLLLS	1.47	3/6
KLSQSVPYESRNKNSVA	EASTRES	QDYHRLPLS	0.23	6/6
KLEQLYYYGSRNKNSVA	QASTRES	QQYHRLPLS	0.18	6/6
KQSQSVLYESRNKNSVA	EASTRES	QQYHRLPLS	0.74	5/6
MIYGAQRELGAMANSIA	DNVTRYD	QQYERLPLS	2.28	1/6
KISQSELEESRNKNSVA	WATVREV	QQYHRLPLS	0.29	6/6
TISQMLMMQTSHKNSVA	GEETRYN	QQYHRLPLS	0.93	6/6
KSSSSVLYESANKNSVA	NASTRES	QQYHRLPLN	0.28	6/6
SLMQVGGYESNYKNSIA	DLRTRES	QQYHRLPLS	0.46	6/6
KSSQSWLYESRNKNSVA	GASTRES	QQYHRLTLS	0.92	6/6
KLSQSVPYEQRNKNSVA	NASTRES	QQYHRLPLS	0.18	6/6
KLYESMGYLSRNKNSIA	DMSRREN	QQYHRLPLS	-0.25	6/6
NMGGTKEMQSNEIGNIA	EMNERFA	QQYFQLPLS	1.30	6/6
KSSGSVMGEDWNKNSVA	QASKRES	QQYHRLPLS	0.26	6/6
TISQMTSLFSQTINNVA	EVSTREP	QQYDRLPLT	0.84	6/6
KLSQSVLGQWRNFNSVA	HASTREQ	QDYHRLPLS	0.50	6/6
KIGMTLNQMMHKKNNVA	DLVTREN	QQYHRLPLS	0.67	6/6
KISQSVLYESRAQNSVA	EASTRCD	QQYHRLPLS	-0.15	6/6
KSGQGVLYESRNFNSVA	GASTRES	QQYHRLPLS	0.50	6/6
KLSMSGLYESRNWNSVA	NASLRES	QDYHRLPLS	0.66	6/6
KSSQSVLYESRNKNSVA	WHSTRES	QQYHRLPLS	nd	0/6
MVGQGLMGESRAKNSIA	QASTRFD	QQYHRLPLI	0.71	6/6
MISDLTMYGSRAKNSVA	DSSTRGS	QQYHRLPLS	0.04	6/6
KLEQSQWYESRNKNSVA	NASTRES	QQYHRLPLS	0.29	6/6
KMMLSLGEFKQSEDNVA	NMRVSVA	QQYDHLPLT	2.92	3/6
QLNVNRLMNYTMNNAIA	GKTLRVD	QQYAQLPLS	0.48	6/6
KLSQSVMLESRNKNAVA	EASTRMS	QDYHRLPLS	0.06	6/6
KISQTIRVGSTHGNSIA	EEVTRAK	QQYHRLPLA	1.21	6/6
NIYQAMHTLSQMKDNVA	DVNERGT	QQYFRLPLS	-0.33	6/6
SIRQVTCDNQRNHSNIA	DATQIEP	QQYSMLPLS	1.30	6/6
MISQLMNMGQFAINSVA	QASERSE	QQYDRLPLI	2.11	6/6
KSSQSVLYESENKNSVA	WASTRES	LQYHRLPLS	0.71	3/6
TGNVELAQGVHEMNNVA	DGDQKED	QQYYRLPLA	0.53	6/6
MISQLYNMGTFTINSVA	QASQRNA	QQYDRLPLM	1.87	3/6
KLTMITGLEKVHGNNVA	EMETREK	QQYNRLPLS	-0.10	6/6
MISQLMNLGQFAINSVA	QATIRNH	QQYDRLPLA	1.85	1/6
MISDTGLHDSRMQNSVA	NNQTREA	QQYHRLPLS	1.94	6/6
KSQQSVLYESRNKNNVA	HASTRED	QQYARLPLS	0.00	6/6
KLSQSHLYESRNKNSVA	NASTRES	QAYHRLPLS	0.40	6/6
KHSQSVLYESRVKNSVA	DASMRES	QQYHRLPLS	-0.11	6/6
KLQQSELYESRNKNSVA	NASYRMS	QQYHRLPLS	-0.09	6/6
HMSMLTLGGLRNRNSVA	QMTTREN	QQYDRLPLA	0.67	6/6
KLDQSHLYESRNWNSVA	NASTREE	QQYHRLPLS	-0.32	6/6
NISESMYFQSRNKNNIA	EMSTRER	QHYHRLPLS	0.35	6/6
KLPWSQLYESRNKNSVA	NASTRES	QQYHRLPLS	-0.48	6/6
KLPQSMEYESRMKNSVA	AASTRES	QQYHRLPLS	-0.01	6/6
KSSQSGLYESRNKNSVA	HASTREQ	QQYHRLPLS	1.66	6/6
KLDQSVMLWSRNKNSVA	QASTRMS	QDYHRLPLS	-0.27	6/6

The 7 strongest on average among those seen in every replicate, once more:

CDR-L1,CDR-L2,CDR-L3,"log10 Kd (nM), mean",replicates with signal
KLPWSQLYESRNKNSVA,NASTRES,QQYHRLPLS,-0.48,6/6
NIYQAMHTLSQMKDNVA,DVNERGT,QQYFRLPLS,-0.33,6/6
KLDQSHLYESRNWNSVA,NASTREE,QQYHRLPLS,-0.32,6/6
KLDQSVMLWSRNKNSVA,QASTRMS,QDYHRLPLS,-0.27,6/6
KLYESMGYLSRNKNSIA,DMSRREN,QQYHRLPLS,-0.25,6/6
HLSDVNLYESRNKNSVA,NASTRES,QQYHRLPLS,-0.17,6/6
KSSGSVLYESMNKNSVA,DATTRES,QQYMRLPLS,-0.17,6/6

Source: Li et al. 2023 (doi:10.1038/s41467-023-39022-2), MIT Lincoln Laboratory and A-Alpha Bio; data file from the FLAb repository.